Measurements as given in patent US20100311648A1.

Sequences of proteins named here, by UniProt entry; tags and fusion partners are left off. A change or cut given only in a name is not applied to a line headed by its entry.
UniProt P32245, whole entry: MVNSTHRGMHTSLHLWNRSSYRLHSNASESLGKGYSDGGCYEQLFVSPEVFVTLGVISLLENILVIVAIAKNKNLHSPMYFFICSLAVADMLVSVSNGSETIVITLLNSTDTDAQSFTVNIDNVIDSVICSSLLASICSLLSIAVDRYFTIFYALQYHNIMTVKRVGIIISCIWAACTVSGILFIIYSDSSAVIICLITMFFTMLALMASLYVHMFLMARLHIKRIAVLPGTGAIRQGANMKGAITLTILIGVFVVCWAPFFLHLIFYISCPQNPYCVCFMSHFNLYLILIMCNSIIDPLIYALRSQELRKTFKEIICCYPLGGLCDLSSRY
UniProt Q01727: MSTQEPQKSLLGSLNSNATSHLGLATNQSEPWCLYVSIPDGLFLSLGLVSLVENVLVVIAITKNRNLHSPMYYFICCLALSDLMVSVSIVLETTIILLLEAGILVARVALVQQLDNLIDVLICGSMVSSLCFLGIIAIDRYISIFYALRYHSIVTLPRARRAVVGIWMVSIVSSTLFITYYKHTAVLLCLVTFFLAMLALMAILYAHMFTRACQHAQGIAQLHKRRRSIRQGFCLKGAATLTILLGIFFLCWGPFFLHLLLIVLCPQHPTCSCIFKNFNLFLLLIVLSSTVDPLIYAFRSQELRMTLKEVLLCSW

Key:
[1] = target: human melanocortin-4 receptor (human) (UniProt P32245); assay: [I125]-NDP-α-MSH competition, hMC4-R HEK-293 membranes
[2] = target: melanocortin-1 receptor (mouse (B-16 melanoma cells); in some instances human (hMC1-R)) (UniProt Q01727); assay: [I125]-NDP-α-MSH competition, MC1-R membranes

Substance | pKi [1] | pKi [2]
Ac-Arg-cyclo(Glu-Dab-D-Phe(3,4-diOMe)-Arg-Trp-Orn)-NH2 (peptide) | 7.46 | –
Ac-Arg-cyclo(Glu-Dap-D-Phe(2-Cl)-Arg-Trp-Orn)-NH2 (peptide) | – | 7.55
Ac-Arg-cyclo(Glu-Dab-D-Phe(2-CN)-Arg-Trp-Orn)-NH2 (peptide) | – | 7.46

pKi: −log10 of the molar value.
